From PMC10781691, “Vertical pathway inhibition of receptor tyrosine kinases and BAD with synergistic efficacy in triple negative breast cancer” (NPJ Precision Oncology, 2024)

Tested on: MDA-MB-231 xenografts
Assay: Orthotopic xenograft, combination study
Type: in vivo, BALB/c-nude mice
Description: In vivo bioluminescent imaging was performed to determine the incidence and metastatic burden of luciferase-labeled 4T1 cells. Mice were injected i.p. with 10 mg/ml of D-luciferin (Gold Biotechnology, MO, USA) and imaged using a PerkinElmer IVIS Spectrum system. PDX were generated as previously described by transplanting fresh fragments orthotopically into 8-week-old female nonobese diabetic (NOD)/severe combined immunodeficient (SCID) mice (Beijing Vital River Laboratory Animal Technology Co., Beijing, China) (P1, passage 1)[40]. The P1 xenografts were then fragmented, digested into single-cell suspension and implanted into mammary fat pad (100 μL PBS containing growth factor reduced 50% Matrigel) of NOD/SCID mice. Once orthotopic xenografts reached an approximate size of 100 mm^3, the mice were randomly divided into three groups (n = 8) for single drug studies and six groups (n = 6) for combination studies and Kaplan-Meier (KM) analyses. […] Animal body weight and xenograft size were measured daily using an electronic balance and a digital caliper, respectively. Xenograft volume (mm^3) was calculated by using the formula: 0.52 × length × [width]^2. Complete response (CR) was achieved if the average xenograft volume for the treatment group was unable to be determined for two or more consecutive measurements. Partial response (PR) was achieved if the average xenograft volume reduced to <50 mm^3 for two or more consecutive measurements. After 3-week drug treatment, all mice were sacrificed by CO2 inhalation. Tumor and vital organs were weighed and isolated for further analysis. IHC analysis of xenograft histology sections and quantitative polymerase chain reaction (qPCR) were performed as previously described.
Data represent means ± SD. *P < 0.05, **P < 0.01, and ***P < 0.001.
Data represent means ± SD (n=6). *P < 0.05, **P
< 0.01, and ***P < 0.001.
Abbreviations: ALT/GOT, alanine
aminotransferase/ glutamic oxaloacetic transaminase; AST/GPT, aspartate aminotransferase/
glutamic pyruvic transaminase; CREA, creatinine; UREA, urea; and ALB, albumin. Data […]

Question: `C[C@@H](Oc1cc(-c2cnn(C3CCNCC3)c2)cnc1N)c1c(Cl)ccc(F)c1Cl` [Crizotinib] was tested. Which “cells of human origin in lung sections (IHC staining of human HPRT)” value (MDA-MB-231-engrafted mice) did it give?
Answer: detectable

Question: And the “complete regression of xenografts (number of xenografts)” value (day 21, NCK 20 mg/kg q.d., OSI-930 20 mg/kg q.d., Crizotinib 50 mg/kg b.i.w.)?
Answer: 1/6

Question: And the “lung metastasis incidence (mice with detectable lung hHPRT mRNA, qPCR)” value (n = 6, vehicle 3 out of 6)?
Answer: 3/6
